The target in one assay is human SGLT2 (Homo sapiens, UniProt P31639). Briefly: Assay for SGLT2 inhibition (14C-AMG uptake in CHOK1 cells expressing human SGLT2). The note with it: 14C-AMG uptake 0.5 mM, 2 hours at 37° C.
For a further assay, the system named is Sprague-Dawley (SD) rats. Briefly: Urinary glucose excretion test in rats. The note with it: male SD rats, 30 mg/kg oral gavage, urine collected for 24 hours; daily amount of glucose excreted per individual.

Sequences of proteins named here, by UniProt entry; tags and fusion partners are left off.
UniProt P31639, whole entry: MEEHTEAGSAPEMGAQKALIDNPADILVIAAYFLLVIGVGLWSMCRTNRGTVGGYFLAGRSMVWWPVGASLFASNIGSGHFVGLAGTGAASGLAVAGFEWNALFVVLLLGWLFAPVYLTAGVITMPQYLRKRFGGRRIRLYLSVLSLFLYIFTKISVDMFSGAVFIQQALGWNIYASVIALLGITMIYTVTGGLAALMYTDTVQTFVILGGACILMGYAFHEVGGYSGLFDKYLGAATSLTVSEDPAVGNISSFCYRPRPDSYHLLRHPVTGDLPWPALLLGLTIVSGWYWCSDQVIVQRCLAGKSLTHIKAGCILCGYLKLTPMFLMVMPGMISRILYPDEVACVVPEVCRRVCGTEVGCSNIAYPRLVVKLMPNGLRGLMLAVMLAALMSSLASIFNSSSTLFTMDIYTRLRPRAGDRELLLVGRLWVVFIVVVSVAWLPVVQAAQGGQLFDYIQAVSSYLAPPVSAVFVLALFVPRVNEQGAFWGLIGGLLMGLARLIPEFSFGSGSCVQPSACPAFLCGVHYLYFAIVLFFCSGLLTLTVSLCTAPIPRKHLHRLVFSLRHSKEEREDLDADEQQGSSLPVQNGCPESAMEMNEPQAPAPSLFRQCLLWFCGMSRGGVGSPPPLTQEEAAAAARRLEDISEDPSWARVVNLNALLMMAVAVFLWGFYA

Consider `O=[N+]([O-])c1ccc(-c2ccc(Cc3cc([C@@H]4O[C@H](CO)[C@@H](O)[C@H](O)[C@H]4O)ccc3Cl)s2)cc1`, for which, at human SGLT2, the IC50 (in general, the midpoint of a concentration-inhibition curve) turned out to be 3.3 nM.

Consider `OC[C@H]1O[C@@H](c2ccc(Cl)c(Cc3ccc(-c4cccnc4F)s3)c2)[C@H](O)[C@@H](O)[C@@H]1O`, for which the IC50 at human SGLT2 was 2.5 nM. Moreover, the Urinary glucose result in the assay with Sprague-Dawley (SD) rats was “A (A≧2000 mg)”.

At human SGLT2, `COc1cccc(-c2ccc(Cc3cc([C@@H]4O[C@H](CO)[C@@H](O)[C@H](O)[C@H]4O)ccc3Cl)s2)c1` displayed an IC50 of 2.4 nM.

On human SGLT2, `OC[C@H]1O[C@@H](c2ccc(Cl)c(Cc3ccc(-c4cccc(OC(F)F)c4)s3)c2)[C@H](O)[C@@H](O)[C@@H]1O` returned an IC50 of 5.5 nM. For the same molecule, the Urinary glucose result with Sprague-Dawley (SD) rats is “B (2000 mg>B≧1000 mg)”.

At human SGLT2, `N#Cc1cccc(-c2ccc(Cc3cc([C@@H]4O[C@H](CO)[C@@H](O)[C@H](O)[C@H]4O)ccc3Cl)s2)n1` gave an IC50 of 1.2 nM. In addition, the Urinary glucose result with Sprague-Dawley (SD) rats is “B (2000 mg>B≧1000 mg)”.

`OC[C@H]1O[C@@H](c2ccc(Cl)c(Cc3ccc(-c4ccc(OC(F)F)cc4)s3)c2)[C@H](O)[C@@H](O)[C@@H]1O` registered an IC50 against human SGLT2 of 4.4 nM. The Urinary glucose result with Sprague-Dawley (SD) rats is recorded as “B (2000 mg>B≧1000 mg)”.

Turning to `N#Cc1ccc(-c2ccc(Cc3cc([C@@H]4O[C@H](CO)[C@@H](O)[C@H](O)[C@H]4O)ccc3Cl)s2)cc1`, the IC50 against human SGLT2 is 1.7 nM. The Urinary glucose entry in the assay on Sprague-Dawley (SD) rats is given as “A (A≧2000 mg)”.

At human SGLT2, `OC[C@H]1O[C@@H](c2ccc(Cl)c(Cc3ccc(-c4cccc(Cl)n4)s3)c2)[C@H](O)[C@@H](O)[C@@H]1O` registered an IC50 of 3.6 nM. Moreover, the Urinary glucose entry in the assay on Sprague-Dawley (SD) rats is reported as “A (A≧2000 mg)”.

Molecule `CC(C)NC(=O)c1ccc(-c2ccc(Cc3cc([C@@H]4O[C@H](CO)[C@@H](O)[C@H](O)[C@H]4O)ccc3Cl)s2)cc1` gave an IC50 against human SGLT2 of 2.3 nM.

For the molecule `OC[C@H]1O[C@@H](c2ccc(Cl)c(Cc3cc4ccc(OC(F)F)cc4s3)c2)[C@H](O)[C@@H](O)[C@@H]1O`, the IC50 on human SGLT2 is 3.1 nM. In addition, in the assay with Sprague-Dawley (SD) rats, the Urinary glucose entry was “A (A≧2000 mg)”.

Consider `N#Cc1cc(-c2ccc(Cc3cc([C@@H]4O[C@H](CO)[C@@H](O)[C@H](O)[C@H]4O)ccc3Cl)s2)ccc1F`, for which the IC50 against human SGLT2 was 4.3 nM. That is a single-digit nanomolar value.

At human SGLT2, `Cc1cc(-c2ccc(Cc3cc([C@@H]4O[C@H](CO)[C@@H](O)[C@H](O)[C@H]4O)ccc3Cl)s2)on1` yielded an IC50 of 4.6 nM.

`OC[C@H]1O[C@@H](c2ccc(Cl)c(Cc3ccc(-c4ccc(F)s4)s3)c2)[C@H](O)[C@@H](O)[C@@H]1O` gave an IC50 against human SGLT2 of 5.6 nM. In addition, the Urinary glucose entry in the assay with Sprague-Dawley (SD) rats is on record as “A (A≧2000 mg)”.

With `OC[C@H]1O[C@@H](c2ccc(Cl)c(Cc3cc4cc(OCCF)ccc4s3)c2)[C@H](O)[C@@H](O)[C@@H]1O`, the concentration for half-maximal inhibition (IC50) against human SGLT2 worked out at 2.9 nM. For the same molecule, the Urinary glucose entry in the assay with Sprague-Dawley (SD) rats is “B (2000 mg>B≧1000 mg)”.

For the molecule `NC(=O)c1cccc(-c2ccc(Cc3cc([C@@H]4O[C@H](CO)[C@@H](O)[C@H](O)[C@H]4O)ccc3Cl)s2)c1`, on human SGLT2, the IC50 is 1.7 nM.

Take `CCOc1ccc2sc(Cc3cc([C@@H]4O[C@H](CO)[C@@H](O)[C@H](O)[C@H]4O)ccc3Cl)cc2c1`: the IC50 against human SGLT2 turned out to be 5.6 nM.

As to `OC[C@H]1O[C@@H](c2ccc(Cl)c(Cc3ccc(-c4ccc(F)c(F)c4)s3)c2)[C@H](O)[C@@H](O)[C@@H]1O`, the IC50 against human SGLT2 came to 8.7 nM.

The values above are taken from patent US8222219B2, “Glucopyranoside compound” (Mitsubishi Tanabe Pharma Corporation, priority 2003, dated 2012).
